# Assay outcomes deposited in PubChem by Broad Institute.
# AF4-AF9 inh = blocks AF4 peptide binding to human AF9; AlphaScreen, biotin-AF4 peptide binding to FLAG-AF9; inhibition, % at 10 µM; 0.47% of 350,000 active;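 active = every replicate reaching a set inhibition limit, whatever the replicate mean, cut at about 25% in these data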;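 also: 0% = plate neutral control median and 100% = total signal loss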
# E-selectin induc = E-selectin induction on HUVECs | HUVEC E-selectin immunofluorescence imaging; normalized: neutral wells 0, TNF-alpha wells 100 | 0.37% of 260,000 active | activation, % at 7.58 µM | P16581;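 active = mean E-selectin-positive cell signal at least 10% of the positive control, reached in at least 60% of replicates, without over 20% cell loss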
#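 System: HUVEC / Compound: single concentration / Signal: immunofluorescence imaging / Read-out: percent E-selectin-positive cells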
# RAD54 inh = inhibitors of human RAD54 branch migration; Q92698; RAD54 Holliday junction branch migration, FAM/BHQ fluorescence; inhibition, % at 10.4 µM; 0.14% of 360,000 active;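 active = mean normalized replicate activity at least 40 and at least half of replicates scoring 40 or more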;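 also: 0% = median of neutral control wells and 100% = median of positive control wells; inhibitors cause a drop in the FAM fluorescence signal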
# RAD52 anneal inh = blocks human RAD52 DNA annealing; AID 651710; recombinant RAD52 DNA annealing, FRET fluorescence; 0.46% of 360,000 active; inhibition, % at 18.7 µM;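 active = every replicate showing at least 50% inhibition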
# Yeast UUG start = modulators of start codon recognition fidelity in yeast; S. cerevisiae UUG-firefly luciferase reporter, luminescence/redox ratio; activity score, % at 18.7 µM; hit rate 0.13% among 350,000; AID 602363;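 active = replicate mean at a twofold rise or more, about +100% in these data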;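 note: firefly luciferase made from a UUG start codon reports start codon fidelity; reporter light over untreated wells divided by growth signal over untreated wells; some hits fall short of that in this replicate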
# SIRT5 inh = blocks human SIRT5 desuccinylation of peptide. inhibition, % at 15 µM. AID 652115. Purified SirT5, succinyl-peptide AMC, trypsin-coupled fluorescence. Q9NXA8. 1.1% of 330,000 active; in the data active = inhibition above about 15%
# An asterisk follows results filed as active; nt = no result. The list is not random: actives were taken first. Their share in the collection is about 1.8%.
# A first look (2 entries):
# The line under a structure holds: AF4-AF9 inh, E-selectin induc, RAD54 inh, RAD52 anneal inh, Yeast UUG start, SIRT5 inh
1: C[C@@H]1CCCCO[C@@H](CN(C)C(=O)Nc2ccc(F)cc2)[C@H](C)CN([C@H](C)CO)C(=O)c2cc(NC(=O)Nc3ccc(F)cc3)ccc2O1
 : 2, nt, -12, -18, 2, 3
2: COc1cc(C(=O)NC2CCN(C)CC2)ccc1Nc1ncc2c(n1)N(Cc1ccccc1)CCC(=O)N2C
 : 14, 0, 31, 70*, -13, nt

# This part in full (from the top)
# The line under a structure holds: AF4-AF9 inh, E-selectin induc, RAD54 inh, RAD52 anneal inh, Yeast UUG start, SIRT5 inh
1: C[C@@H]1CCCCO[C@@H](CN(C)C(=O)Nc2ccc(F)cc2)[C@H](C)CN([C@H](C)CO)C(=O)c2cc(NC(=O)Nc3ccc(F)cc3)ccc2O1
 : 2, nt, -12, -18, 2, 3
2: COc1cc(C(=O)NC2CCN(C)CC2)ccc1Nc1ncc2c(n1)N(Cc1ccccc1)CCC(=O)N2C
 : 14, 0, 31, 70*, -13, nt
3: CCOc1cccc(CN2CCCC(N3CCc4ccccc4C3)C2)c1O (stereo not given)
 : 11, 0, -8, -6, -11, -2
4: CCOc1cccc(CN2CCCC(N3CCN(c4cccc(Cl)c4)CC3)C2)c1O (stereo not given)
 : 17, nt, 6, 13, -10, 69*
5: CC(C)NC(=O)Nc1ccc2c(c1)C(=O)N([C@@H](C)CO)C[C@@H](C)[C@@H](CN(C)CC1CCCCC1)O2
 : -1, 0, -6, 1, 12, 0
6: O=C(Nc1ccncc1)C1CC(=O)N(c2ccc(F)cc2)C1 (stereo not given)
 : 2, nt, -11, -11, -7, -4
7: CCc1ccc(N2CC(C(=O)Nc3ccc(F)cc3)CC2=O)cc1 (stereo not given)
 : 1, 42*, -19, -4, -4, 1
8: c1ccc2c3c([nH]c2c1)CCNC3
 : 25*, nt, 30, -1, -11, 0
9: Cc1ccc2[nH]c3c(c2c1)CNCC3
 : 4, nt, 3, 3, -16, -4
10: CCCOP(=O)(c1ccc(N(C)C)cc1)C(Nc1ccccc1)c1ccc(N(C)C)cc1 (stereo not given)
 : 1, 1, -4, -8, -11, 29*
11: CCCCOP(=O)(c1ccc(N(C)C)cc1)C(Nc1ccccc1)c1ccccc1 (stereo not given)
 : 10, nt, 5, -4, 8, 1
12: CN(C)CC(=O)N[C@H]1CC[C@@H](CCNC(=O)C2CC2)O[C@@H]1CO
 : -4, 0, nt, 8, nt, -1
13: Clc1ccccc1CN1CCN(/N=C/C=C\c2ccco2)CC1
 : 9, nt, nt, -8, nt, 28*
14: O=C(NC1CCCC1)C(c1ccc(F)cc1)N(C(=O)c1csnn1)c1ccccc1 (stereo not given)
 : -1, 36*, -5, -9, -13, -3
15: CCCC(=O)N1C[C@H]2[C@@H](c3ccccc31)[C@H](CO)N2C(=O)CC1CC1
 : nt, 0, 13, -6, -5, -3
16: CCn1c2ccccc2c2nnc(SCN3C(=O)c4ccccc4C3=O)nc21
 : nt, 121*, nt, -7, nt, -2
17: O=C(N/C(=C\c1ccc([N+](=O)[O-])cc1)C(=O)N1CCCCC1)c1ccccc1
 : -2, nt, nt, -6, nt, 16*
18: CN1CCN(C(=O)/C(=C/c2ccc([N+](=O)[O-])cc2)NC(=O)c2ccccc2)CC1
 : -1, nt, 0, -17, 7, 1
19: N#Cc1ccc(C(=O)NC(=S)N2CCN(C=O)CC2)cc1
 : -3, 2, -7, -9, -17, 20*
20: O=C(NC(=S)N1CCN(c2ccc([N+](=O)[O-])cc2)CC1)c1ccccc1
 : -3, 33*, nt, -45, nt, 0

# (cont.)
# The line under a structure holds: AF4-AF9 inh, E-selectin induc, RAD54 inh, RAD52 anneal inh, Yeast UUG start, SIRT5 inh
21: O=C(C[C@H]1CC[C@@H]2[C@H](COC[C@@H](O)CN2Cc2cccc(C(F)(F)F)c2)O1)NCc1ccncc1
 : 0, 0, -5, 18, -3, 0
22: O=C(NCC(F)(F)F)[C@H]1[C@H](CO)[C@H]2Cn3c(cccc3=O)[C@@H]1N2CC1CCCC1
 : -6, 0, nt, -8, nt, -1
23: COc1cccc(NC(=O)N2CC(=O)N3[C@@H](CO)[C@@H](c4ccc(C#CC5CCCC5)cc4)[C@@H]3C2)c1
 : 2, -1, nt, 18, nt, 10
24: COc1cccc(C(=O)Nc2ccc3c(c2)OC[C@@H](C)N(C)C[C@@H](C)[C@@H](OC)CN(C)C3=O)c1
 : -1, 1, -1, 13, 4, 1
25: O=C(C[C@@H]1C[C@H]2c3cc(NC(=O)c4ccc5c(c4)OCO5)ccc3O[C@H]2[C@H](CO)O1)NCc1ccc(Oc2ccccc2)cc1
 : 1, 1, 5, 3, nt, 22*
26: O=C(C[C@@H]1C[C@H]2c3cc(NS(=O)(=O)c4ccc(F)cc4)ccc3O[C@H]2[C@H](CO)O1)NCc1ccc(-c2ccccc2)cc1
 : 1, 0, -1, 2, -12, 20*
27: O=C(C[C@H]1C[C@@H]2c3cc(NC(=O)Nc4ccccc4F)ccc3O[C@@H]2[C@@H](CO)O1)NCc1ccc(Oc2ccccc2)cc1
 : -2, 0, -3, -38, -14, 18*
28: O=C(C[C@@H]1C[C@@H]2c3cc(NC(=O)Nc4ccccc4F)ccc3O[C@@H]2[C@H](CO)O1)NCC1CC1
 : 0, 0, -5, -10, -4, 4
29: O=C(C[C@@H]1C[C@H]2c3cc(NC(=O)Nc4ccccc4F)ccc3O[C@H]2[C@H](CO)O1)NCC1CC1
 : 3, 0, -7, -2, 0, 22*
30: C[C@@H]1CCCCO[C@@H](CN(C)C(=O)CCC(F)(F)F)[C@H](C)CN([C@@H](C)CO)C(=O)c2cc(NC(=O)CCC(F)(F)F)ccc2O1
 : -2, nt, 8, -11, 6, 2
31: O=C(C[C@H]1CC[C@@H]2[C@H](COC[C@@H](O)CN2C(=O)Nc2ccc(F)cc2)O1)NCC1CC1
 : 4, 0, 1, 2, nt, 0
32: Cc1cc(C)n(CCC(=O)N2c3ccccc3CC2C)n1 (stereo not given)
 : 3, nt, 6, -11, -26, 17*
33: COc1ccc2c(c1)C(=O)N(c1ccccc1C)C(=O)C2(C)C
 : -1, 0, nt, -8, nt, -10
34: COc1ccc(N2C(=O)c3ccccc3C(C)(C)C2=O)cc1
 : 7, 45*, 0, -7, -21, -3
35: O=C(Nc1cc(=O)[nH]c2ncnn12)c1ccco1
 : -2, nt, 1, -17, -15, 12
36: COc1ccc(C(=O)Nc2cc(=O)[nH]c3ncnn23)cc1
 : -13, nt, -5, -26, -13, 31*
37: O=S(=O)(c1ccc(F)cc1)N1CCCCN2[C@H](CO)[C@H](c3ccc(C#CC4CCCC4)cc3)[C@@H]2C1
 : -4, nt, 5, 13, 9, 23*
38: O=S(=O)(c1ccc(F)cc1)N1CCCCN2[C@H](C1)[C@@H](c1ccc(C#CC3CCCC3)cc1)[C@@H]2CO
 : -2, nt, -2, -10, 1, 1
39: O=S(=O)(c1ccc(F)cc1)N1CCCCN2[C@@H](CO)[C@H](c3ccc(C#CC4CCCC4)cc3)[C@@H]2C1
 : 3, nt, 2, 38, -6, 27*
40: O=S(=O)(c1ccc(F)cc1)N1CCCCN2[C@@H](CO)[C@@H](c3ccc(C#CC4CCCC4)cc3)[C@@H]2C1
 : 2, nt, -6, 31, 1, 23*
41: C[C@H](CO)N1C[C@H](C)[C@@H](CN(C)Cc2cccnc2)Oc2ncc(-c3cccc(F)c3)cc2C1=O
 : -1, 1, -1, 2, -3, -3
42: CC(C)C#Cc1ccc2c(c1)O[C@@H](CN(C)C(=O)c1cccnc1)[C@H](C)CN([C@H](C)CO)S2(=O)=O
 : 1, 0, -14, -4, 5, -1

# Sorted by value in SIRT5 inh (smallest number first): some entries from above
no. | compound | AF4-AF9 inh | RAD52 anneal inh | Yeast UUG start | SIRT5 inh
32 | Cc1cc(C)n(CCC(=O)N2c3ccccc3CC2C)n1 (stereo not given) | 3 | -11 | -26 | 17*
27 | O=C(C[C@H]1C[C@@H]2c3cc(NC(=O)Nc4ccccc4F)ccc3O[C@@H]2[C@@H](CO)O1)NCc1ccc(Oc2ccccc2)cc1 | -2 | -38 | -14 | 18*
36 | COc1ccc(C(=O)Nc2cc(=O)[nH]c3ncnn23)cc1 | -13 | -26 | -13 | 31*
